# Earlier results in patent US12398099B2, “Multi-aziridine compound” (priority 2020, dated 2025).
# Settings: background statement on prior-art crosslinkers
substance,measurement,value
pentaerythritol tris[3-(1-aziridinyl)propionate [XAMA-7],genotoxic profile,unfavourable genotoxic profile
